# Source: patent US10968265B2, “Antibody-coupled cyclic peptide tyrosine tyrosine compounds as modulators of neuropeptide Y receptors” (Janssen Pharmaceutica NV, priority 2016, dated 2021)
# The chains behind the UniProt entries cited, without tags or fusion partners. Residues count along the entry.
# UniProt P97295, whole entry: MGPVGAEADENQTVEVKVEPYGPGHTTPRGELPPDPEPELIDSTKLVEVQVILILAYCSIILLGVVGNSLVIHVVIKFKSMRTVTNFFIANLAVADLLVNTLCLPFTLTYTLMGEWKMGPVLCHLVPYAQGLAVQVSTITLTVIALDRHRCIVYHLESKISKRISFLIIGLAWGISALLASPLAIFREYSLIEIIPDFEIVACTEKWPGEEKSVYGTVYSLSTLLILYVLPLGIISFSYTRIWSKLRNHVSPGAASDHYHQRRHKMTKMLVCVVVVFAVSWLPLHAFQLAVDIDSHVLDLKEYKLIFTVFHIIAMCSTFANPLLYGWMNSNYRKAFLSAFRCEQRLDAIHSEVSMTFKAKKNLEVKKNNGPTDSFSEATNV
# UniProt Q9GK74, whole entry: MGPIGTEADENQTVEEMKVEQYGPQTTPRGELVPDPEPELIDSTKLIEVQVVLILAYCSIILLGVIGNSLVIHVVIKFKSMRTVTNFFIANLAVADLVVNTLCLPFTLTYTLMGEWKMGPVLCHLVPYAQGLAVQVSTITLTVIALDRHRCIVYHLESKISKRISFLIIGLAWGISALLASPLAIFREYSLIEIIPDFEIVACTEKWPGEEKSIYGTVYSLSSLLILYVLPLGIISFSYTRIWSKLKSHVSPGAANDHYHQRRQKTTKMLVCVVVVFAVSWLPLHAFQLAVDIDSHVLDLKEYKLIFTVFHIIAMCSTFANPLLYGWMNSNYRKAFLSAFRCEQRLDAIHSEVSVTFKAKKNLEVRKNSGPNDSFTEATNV
# UniProt Q9ERC0, 1-381: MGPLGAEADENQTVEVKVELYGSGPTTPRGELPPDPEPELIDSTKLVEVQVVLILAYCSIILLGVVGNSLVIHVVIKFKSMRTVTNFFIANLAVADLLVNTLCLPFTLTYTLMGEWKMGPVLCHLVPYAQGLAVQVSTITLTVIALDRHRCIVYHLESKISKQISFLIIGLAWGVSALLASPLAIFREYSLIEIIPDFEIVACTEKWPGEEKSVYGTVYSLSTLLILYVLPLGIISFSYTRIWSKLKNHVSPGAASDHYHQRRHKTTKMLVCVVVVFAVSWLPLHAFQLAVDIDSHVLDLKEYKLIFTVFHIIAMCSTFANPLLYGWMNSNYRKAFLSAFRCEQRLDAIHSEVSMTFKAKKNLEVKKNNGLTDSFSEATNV
# What was measured:
# Assay type in all cases: cell-based
# [1] = biological target: T1, mouse Y2 receptor (Mus musculus, UniProt P97295); assay: cAMP assay, mouse Y2 receptor; settings: read-out: Cross-species potency (EC50 nM) Mouse Y2, Table 2
# T1 construct: expressed in transfected cells
# [2] = biological target: T2, rhesus monkey Y2 receptor (Macaca mulatta, UniProt Q9GK74); assay: cAMP assay, rhesus monkey Y2 receptor; settings: read-out: Cross-species potency (EC50 nM) Rhesus Monkey Y2, Table 2
# T2 construct: expressed in transfected cells
# [3] = biological target: T3, rat Y2 receptor (Rattus norvegicus, UniProt Q9ERC0); assay: cAMP assay, rat Y2 receptor; settings: read-out: Cross-species potency (EC50 nM) Rat Y2, Table 2
# T3 construct: host or cells: GloSensor CHO-K1 (also carries the pGloSensor-23F cAMP plasmid)
substance,measurement,setting,value
PYY3-36,EC50,[1],0.03 nM
same,EC50,[2],0.06 nM
same,EC50,[3],0.5 nM
